## Ab-14 light chain CDR variants: yeast mating affinities

Data: MIT Lincoln Laboratory AlphaSeq set, Li et al. 2023, doi:10.1038/s41467-023-39022-2, as distributed in FLAb.

Target peptide (SARS-CoV-2 spike, HR2 region): PDVDLGDISGINAS

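Phage display of a naive human antibody library on the peptide gave the parent. These sequences belong to a second round, designed from the earlier measurements on random variants of the parent. Group labels follow the data file (Ctrl: baseline library sampled from a position-specific scoring matrix, with some repeated check sequences; Rand: our label for a block that the file lists under HC and that is probably the random mutants of the ten best first-round binders; GP: Gaussian process model; HC: hill climbing; Gen: genetic algorithm; Gibbs: Gibbs sampling; a sequence that several methods proposed may carry one label only). The assay is AlphaSeq: two haploid yeast populations carry antibody and antigen on their surface. Pairs that bind mate more often; barcode pairs of the diploids are counted by sequencing. Read counts were normalised to the haploid input and turned into Kd by a linear fit to BCL2-family pairs of known affinity, for each replicate. Each pool was mated in six replicate cultures.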

The variants keep the heavy chain, the linker and the frameworks of Ab-14 (scFv order VH, the linker GGGGSGGGGSGGGGS, VL).
VH: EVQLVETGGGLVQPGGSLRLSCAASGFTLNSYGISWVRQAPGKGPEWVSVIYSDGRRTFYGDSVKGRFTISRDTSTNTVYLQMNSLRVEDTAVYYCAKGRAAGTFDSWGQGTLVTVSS
VL: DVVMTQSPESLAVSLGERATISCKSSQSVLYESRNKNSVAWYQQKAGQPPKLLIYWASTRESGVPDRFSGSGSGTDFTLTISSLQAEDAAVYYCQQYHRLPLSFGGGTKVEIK

Positions count from residue 1 of the parent VL; S26Q puts Q in place of S.
This list holds designs with at most six substitutions.
The read-out is the apparent dissociation constant on a log10 scale (nM): the lower, the stronger.
A mean of the replicates is given; it leaves out those without a signal.
An entry "n.d." has no value in the source: the pair was not observed among the diploids in that replicate. This suggests poor binding but is not conclusive.
The list is sorted by this average, lowest first, undetected variants last.
Values of this round are not directly comparable with the first-round values of the same sequences.
The parent sequence was in this pool as ten entries: three were never detected, three once, and four in most replicates, with averages from 0.34 to 2.37.
The authors' rule: three or more of the six replicates give a measured affinity, fewer mean a poor binder.
Empty control strains, which show no peptide, gave a signal in 4% of pairings with all light chain designs; the median was 2.64 and 95% of these signals were weaker than 1.59. No background was subtracted. For each scFv, signals with the empty controls are counted beside the result, with their mean in brackets.

changes,group,"replicates, log10 nM","log10 Kd (nM), mean",control signals
S26Q+V29W+W56G+T59S,GP_HC,-0.69 -0.65 -0.64 -0.53 -0.76 -0.45,-0.62,0 of 18
S25V+N35Q+W56N,GP_Gen,-0.15 -0.48 -0.58 -0.62 -0.47 -0.54,-0.47,0 of 18
S25L+V29A+S38N+W56G,GP_Gen,-0.35 -0.41 -0.53 -0.37 -0.56 -0.40,-0.44,0 of 18
S25F+W56H+T59Q,GP_Gen,-0.34 -0.37 -0.29 -0.24 -0.59 -0.36,-0.37,1 of 18 (2.25)
S25L+L30E+S38N+W56E,GP_Gen,-0.37 -0.41 -0.48 -0.40 -0.56 0.11,-0.35,0 of 18
S25L+S26Q+W56E+T59Q,GP_Gen,-0.30 -0.22 -0.24 -0.48 -0.48 -0.40,-0.35,0 of 18
S25L+N35M+W56N+E61M+S62M,GP_Gen,-0.01 -0.43 -0.33 -0.26 -0.17 -0.21,-0.24,0 of 18
S25F+S26E+S28G+N37G+W56G+T59V,GP_HC,-0.08 -0.13 -0.16 -0.35 -0.33 -0.09,-0.19,0 of 18
S25M+Q27D+W56A+H98A,Ctrl,-0.04 -0.08 -0.42 -0.32 -0.17 0.00,-0.17,3 of 18 (2.62)
S25F+N35M+S38G+W56N,GP_HC,0.16 -0.21 -0.31 -0.26 -0.20 -0.02,-0.14,4 of 18 (2.31)
S25Y+W56A,Ctrl,-0.06 -0.06 -0.11 -0.13 -0.18 -0.03,-0.09,2 of 18 (2.81)
S25F+S26Q+V29E+W56E,GP_Gen,0.04 -0.04 -0.08 -0.32 -0.07 0.02,-0.07,0 of 18
S26Q+Q27G+V29Q+L30E+W56H+S62D,GP_HC,-0.09 -0.05 0.07 -0.20 -0.27 0.12,-0.07,1 of 18 (2.86)
S25L+L30P+W56N+S62W,GP_Gen,0.11 0.01 -0.10 -0.12 -0.18 0.02,-0.04,2 of 18 (2.51)
K24A+S25L+W56E,GP_Gen,0.04 -0.17 -0.02 -0.01 -0.06 0.05,-0.03,2 of 18 (1.97)
S25M+V29Q+K36I+W56N+E61L+S62T,GP_Gibbs,-0.11 -0.12 0.05 -0.06 -0.24 0.34,-0.02,0 of 18
Y31F+E32Q+W56E,GP_HC,0.28 -0.02 0.15 -0.18 -0.23 0.01,0.00,1 of 18 (3.06)
K24H+Q27P+S33D+S38N+W56N,GP_HC,0.37 -0.05 -0.06 -0.17 -0.07 0.07,0.02,2 of 18 (3.90)
S25L+Q27M+V29W+W56E,GP_Gen,0.34 0.13 0.00 -0.16 -0.03 0.22,0.09,2 of 18 (2.47)
L30E+Y31F+W56D,GP_HC,0.09 0.10 0.00 0.13 0.22 0.14,0.11,1 of 18 (2.30)
S25L+V29E+S33D+W56N+T59Q,GP_Gen,0.14 -0.06 0.31 0.21 0.01 0.08,0.11,0 of 18
S25L+K36F+W56N+E61S,GP_Gen,0.23 0.05 0.19 0.14 0.09 0.03,0.12,1 of 18 (2.54)
S26P+W56G+S62D+Q96S,GP_HC,0.30 0.25 0.14 0.25 -0.10 0.42,0.21,0 of 18
S26Y+Q27Y+V29F+W56E,GP_HC,0.54 0.20 0.43 0.08 0.23 0.78,0.38,0 of 18
S25L+S26R+V29T+W56H+E61L,GP_HC,0.66 0.42 0.52 0.43 0.48 0.64,0.52,1 of 18 (2.59)
K24H+S25L+Q27W+S28V+W56N+S62E,GP_HC,0.99 0.42 0.43 0.47 0.41 0.86,0.60,0 of 18
K24H+S25L+Q27P+V29E+W56N,GP_HC,0.79 0.77 0.62 0.75 0.48 0.75,0.69,0 of 18
S25L+S26Q+V29Q+L30E+W56H+E61L,GP_HC,0.59 0.77 0.68 0.39 0.83 0.98,0.71,0 of 18
Y31M+S33H+S38F+W56K+S58E+S62I,Ctrl,1.82 1.29 1.49 1.43 1.62 1.42,1.51,1 of 18 (3.63)
Q27N+R34E+W56E+T59Q,GP_HC,3.54 0.94 1.23 1.21 1.96 1.05,1.66,0 of 18
S28K+Y31K+A57C,Ctrl,n.d. n.d. 1.75 n.d. n.d. n.d.,1.75,1 of 18 (2.55)
Q27D+V29I,Ctrl,1.94 n.d. 1.92 1.38 0.80 3.63,1.93,1 of 18 (2.26)
S25L+W56D+Q95G+L102S,GP_HC,n.d. 2.28 2.54 n.d. n.d. n.d.,2.41,1 of 18 (3.23)
L30W+S103N,Ctrl,n.d. 1.87 n.d. 3.03 n.d. n.d.,2.45,0 of 18
N35G+Q96A,Ctrl,n.d. 2.33 n.d. n.d. n.d. 2.75,2.54,0 of 18
S28A+N37S,Ctrl,n.d. n.d. n.d. n.d. n.d. 3.10,3.10,0 of 18
L102V,Ctrl,n.d. n.d. n.d. n.d. n.d. 3.32,3.32,0 of 18
L30E+Y31M+Q96S+P101H,Ctrl,n.d. n.d. n.d. n.d. n.d. n.d.,n.d.,0 of 18
S25F+N35T+A40D+W56N+S58Q,Rand,n.d. n.d. n.d. n.d. n.d. n.d.,n.d.,0 of 18
K24E+S25Y+K36C+S103Y,Ctrl,n.d. n.d. n.d. n.d. n.d. n.d.,n.d.,0 of 18
Y31I+S62E+Y97T,Ctrl,n.d. n.d. n.d. n.d. n.d. n.d.,n.d.,0 of 18
Q27H+R34Y+Q95E,Ctrl,n.d. n.d. n.d. n.d. n.d. n.d.,n.d.,0 of 18

For reference, 6 entries of the list once more:

{"changes": "S25F+N35M+S38G+W56N", "group": "GP_HC", "replicates, log10 nM": "0.16 -0.21 -0.31 -0.26 -0.20 -0.02", "log10 Kd (nM), mean": "-0.14", "control signals": "4 of 18 (2.31)"}
{"changes": "K24A+S25L+W56E", "group": "GP_Gen", "replicates, log10 nM": "0.04 -0.17 -0.02 -0.01 -0.06 0.05", "log10 Kd (nM), mean": "-0.03", "control signals": "2 of 18 (1.97)"}
{"changes": "S28K+Y31K+A57C", "group": "Ctrl", "replicates, log10 nM": "n.d. n.d. 1.75 n.d. n.d. n.d.", "log10 Kd (nM), mean": "1.75", "control signals": "1 of 18 (2.55)"}
{"changes": "S25F+S26Q+V29E+W56E", "group": "GP_Gen", "replicates, log10 nM": "0.04 -0.04 -0.08 -0.32 -0.07 0.02", "log10 Kd (nM), mean": "-0.07", "control signals": "0 of 18"}
{"changes": "S26Q+Q27G+V29Q+L30E+W56H+S62D", "group": "GP_HC", "replicates, log10 nM": "-0.09 -0.05 0.07 -0.20 -0.27 0.12", "log10 Kd (nM), mean": "-0.07", "control signals": "1 of 18 (2.86)"}
{"changes": "S26P+W56G+S62D+Q96S", "group": "GP_HC", "replicates, log10 nM": "0.30 0.25 0.14 0.25 -0.10 0.42", "log10 Kd (nM), mean": "0.21", "control signals": "0 of 18"}